Values of other authors as cited in paper PMC12711161 (2025).

Target: T1, COX‐2 (Mus musculus, UniProt Q05769)
T1 sequence (Q05769 18-604): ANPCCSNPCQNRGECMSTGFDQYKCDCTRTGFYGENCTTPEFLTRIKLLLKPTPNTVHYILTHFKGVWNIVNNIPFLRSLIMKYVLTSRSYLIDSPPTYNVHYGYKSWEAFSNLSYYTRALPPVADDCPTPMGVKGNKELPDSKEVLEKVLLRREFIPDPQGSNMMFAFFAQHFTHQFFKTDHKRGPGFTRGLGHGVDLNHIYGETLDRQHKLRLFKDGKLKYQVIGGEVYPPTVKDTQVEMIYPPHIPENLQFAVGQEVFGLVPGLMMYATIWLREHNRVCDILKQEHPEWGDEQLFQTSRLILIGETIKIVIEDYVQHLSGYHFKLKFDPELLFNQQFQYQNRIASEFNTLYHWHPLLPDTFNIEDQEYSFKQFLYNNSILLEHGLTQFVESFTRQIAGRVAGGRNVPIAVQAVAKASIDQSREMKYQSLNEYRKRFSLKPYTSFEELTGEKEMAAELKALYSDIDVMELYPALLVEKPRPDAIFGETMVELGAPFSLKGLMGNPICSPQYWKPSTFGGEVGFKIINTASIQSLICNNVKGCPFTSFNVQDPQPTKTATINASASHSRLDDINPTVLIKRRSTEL
Conditions: read-out: COX‐2 IC50; J774 murine macrophage assay; ref [27]; cited from earlier work

## Cc1c(CCOCCO)cc(-c2ccc(S(C)(=O)=O)cc2)n1-c1ccc(F)cc1 [Compound 7b]
  IC50: 4 nM
